Results on one molecule are retold here after paper PMC3702509, “Label Free Fragment Screening Using Surface Plasmon Resonance as a Tool for Fragment Finding – Analyzing Parkin, a Difficult CNS Target” (PLoS ONE, 2013).

Assay [1] has as its target T1, FL-FLAG-Parkin (full-length Parkin with N-terminal 3xFLAG and TEV site) (human), O60260. Kind of assay: SPR; thermal treated (56°C) FL-FLAG Parkin captured on amine-coupled anti-FLAG M2 antibody on a CM5 chip; protein ligands injected; 25°C; 10 mM HEPES pH 7.4, 150 mM NaCl, 0.005% Tween-20, 4 mM reducing agent; 1:1 binding model. The conditions noted are these: remark: other sources report otherwise.

In assay [2] the target is T1, FL-FLAG-Parkin (full-length Parkin with …). The experiment in a line: SPR; non-thermal treated (RT) FL-FLAG Parkin captured on amine-coupled anti-FLAG M2 antibody on a CM5 chip at 3:1 (Parkin:Ab); protein ligands injected in dilution series; 25°C; 10 mM HEPES pH 7.4, 150 mM NaCl, 0.005% Tween-20, 4 mM reducing agent; 1:1 binding model; Biacore T100 or T200. The conditions noted are these: remark: other sources report otherwise. For orientation: In SPR one partner is held on a chip, and binding of the other changes the refractive index at the surface.

A word on the Kd: it is the constant that tells how readily two partners part at equilibrium. Read a low Kd as higher affinity.

B1: His-tagged ubiquitin-like domain of Parkin (UblD, residues 1-76), O60260-1 1-76 (domain or fragment)
chain: MIVFVRFNSSHGFPVEVDSDTSIFQLKEVVAKRQGVPADQLRVIFAGKELRNDWTVQNCDLDQQSIVHIVQRPWRK
Turning to B1, the figures for the Kd in assay [1] and in assay [2] were 7.4 µM and 5.4 µM, respectively. In assay [2], the dissociation time (printed beside kd) worked out at 2 min.
